This note sets out measurements from ChEMBL document CHEMBL4371002 (J Med Chem, 2018).

Protein sequences, listed by entry. Tags and fused reporters are not part of them. Lines headed by an entry give the natural chain unless they say otherwise; changes in a name come on top.
UniProt P41145: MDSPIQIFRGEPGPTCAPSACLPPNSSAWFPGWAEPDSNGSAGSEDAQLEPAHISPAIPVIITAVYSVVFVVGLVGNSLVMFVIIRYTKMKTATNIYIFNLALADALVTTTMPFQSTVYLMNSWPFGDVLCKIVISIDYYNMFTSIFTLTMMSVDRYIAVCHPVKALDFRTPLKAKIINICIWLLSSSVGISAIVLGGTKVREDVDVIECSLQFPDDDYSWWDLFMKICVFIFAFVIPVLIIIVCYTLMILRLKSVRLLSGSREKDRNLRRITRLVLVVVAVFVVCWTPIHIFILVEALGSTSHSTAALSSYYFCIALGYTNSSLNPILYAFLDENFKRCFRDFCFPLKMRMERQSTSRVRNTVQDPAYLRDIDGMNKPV
UniProt P62942, whole entry: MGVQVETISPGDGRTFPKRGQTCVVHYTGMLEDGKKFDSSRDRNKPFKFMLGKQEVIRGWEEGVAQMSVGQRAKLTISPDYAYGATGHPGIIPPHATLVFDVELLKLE

For assay [1], the target named is Kappa-type opioid receptor (Homo sapiens, UniProt P41145). It counts as cell-based, CHO.
Assay [2] concerns the target T1, 3-oxo-5-alpha-steroid 4-dehydrogenase 2 (Homo sapiens, UniProt P31213).
T1 sequence (P31213 whole entry): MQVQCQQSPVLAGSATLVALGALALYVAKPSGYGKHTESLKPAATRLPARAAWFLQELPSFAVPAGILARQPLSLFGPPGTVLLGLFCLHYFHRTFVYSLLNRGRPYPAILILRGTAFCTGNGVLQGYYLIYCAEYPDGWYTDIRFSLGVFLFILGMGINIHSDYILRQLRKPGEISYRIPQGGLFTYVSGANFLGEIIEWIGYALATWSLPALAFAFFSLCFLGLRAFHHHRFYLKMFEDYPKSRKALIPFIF

Assay [3] concerns the target T1, 3-oxo-5-alpha-steroid 4-dehydrogenase 2. The source holds these as a separate data set.
In assay [4] the target is Peptidyl-prolyl cis-trans isomerase FKBP1A (Homo sapiens, UniProt P62942). Briefly: biochemical. It counts as cell-based.

With `CC(C)C[C@H](NC(=O)[C@H](Cc1ccccc1)NC(=O)CNC(=O)C/C=C(\F)[C@@H](N)Cc1ccc(O)cc1)C(=O)O`, the EC50 in assay [1] was above 10000 nM.
For `C[C@]12C=CC(=O)N[C@@H]1CC[C@@H]1[C@@H]2CC[C@]2(C)[C@@H](C(=O)NC(c3ccccc3)(C(F)(F)F)C(F)(F)F)CC[C@@H]12`, the figures for the IC50 in assay [2] and in assay [3] were 1.8 nM and 20 nM, respectively.
As for `COc1cc(C(=O)C(=O)N2CCCC[C@H]2C(=O)OC(CCCc2ccccc2)CCCc2cccnc2)cc(OC)c1OC` (stereo partly specified), in assay [4], the affinity corresponds to a Ki of 0.3 nM.
In the case of `CC(NC(=O)[C@H]1CC[C@H]2[C@@H]3CC[C@H]4NC(=O)C=C[C@]4(C)[C@H]3CC[C@]12C)(c1ccccc1)C(F)(F)F` (stereo partly specified), the IC50 in assay [2] was found to be 3.3 nM; in assay [3], 16 nM.

By EC50 is commonly meant the concentration needed to bring the measured effect to its halfway point. The term IC50 denotes the concentration needed to halve the response being measured. The term Ki denotes a measure of affinity in units of concentration, obtained from inhibition or displacement. A high value points to lower affinity.
